scFv variants of Ab-14 (light chain) against a SARS-CoV-2 spike peptide

Target: peptide PDVDLGDISGINAS, taken from heptad repeat 2 (HR2) of SARS-CoV-2 spike.

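The parent was found by panning a naive human phage display library on the peptide. These sequences belong to a second round, designed from the earlier measurements on random variants of the parent. Their group label is 14L_En_Gibbs (En: ensemble of fine-tuned language models; Gibbs: Gibbs sampling). The scFvs were displayed on barcoded MATa yeast, the peptide on MATalpha yeast. The frequency of each diploid, read from paired DNA barcodes, reflects how well the two displayed proteins bind. Each replicate has its own calibration line, from reference interactions of the BCL2 family. There are six technical replicates.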

Each scFv is VH, a (GGGGS)3 linker, VL, as in the parent Ab-14, and differs from it in the CDRs of the light chain only.
VH: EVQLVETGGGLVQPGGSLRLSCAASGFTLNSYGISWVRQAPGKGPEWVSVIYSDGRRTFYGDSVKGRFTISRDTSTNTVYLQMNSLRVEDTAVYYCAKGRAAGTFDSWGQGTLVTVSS
VL: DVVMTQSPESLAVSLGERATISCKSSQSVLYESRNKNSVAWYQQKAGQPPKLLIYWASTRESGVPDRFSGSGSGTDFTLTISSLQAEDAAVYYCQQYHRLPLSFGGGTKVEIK

Variants are written as CDR1, CDR2 and CDR3 of the light chain (limits as in the source). Parent: KSSQSVLYESRNKNSVA, WASTRES, QQYHRLPLS.
The read-out is the apparent dissociation constant on a log10 scale (nM): the lower, the stronger.
A pair that was not seen in that replicate is written "n.d."; this usually means weak binding, but a binder can also be missed.

CDR-L1,CDR-L2,CDR-L3,log10 Kd (nM) by replicate,signal with controls
HFAYPLQSGYVSKQNVA,NASTVMT,QHYNRLPLS,1.26 1.83 1.27 1.20 1.08 1.22,0/18
KLAMYLEMNARTIHAIA,EANLKPS,QQYNRLPFS,n.d. 1.65 n.d. 2.00 2.60 2.86,1/18 (2.90)
AISQMLEPAAQNSSSIA,EADRVTE,QQYSKLPLT,1.04 0.88 1.01 0.79 0.76 1.03,2/18 (2.50)
KFAYQADMYGAQCNNVA,HADIREP,QQYFKLPLN,0.65 0.74 0.68 0.25 0.65 0.92,1/18 (2.17)
SLYGEYALVDQHTDSIA,DANLMMH,QQYHRLPLA,0.77 0.70 0.53 0.47 0.59 0.58,1/18 (2.52)
HFAKQLGSLYNSKQNVA,NASTVMV,QHYNRLPLS,0.94 0.72 1.11 0.95 0.78 1.17,1/18 (3.33)
HVAHASLESNAKMNSVA,NEACLAI,QQYHRLPLA,0.73 1.61 n.d. 0.91 1.50 0.94,1/18 (1.00)
FLPMKELQMSENTNNVA,DSEQKMK,QQYSRLPLM,0.25 0.09 0.00 -0.13 -0.15 0.15,1/18 (2.72)
MLTWGDDHETGHQNSIA,HAHERNT,QQYAQLPLT,0.65 0.99 0.40 0.72 0.68 1.04,0/18
TLGMQPTEMRDNKHAVA,DNNQRDR,QSYMRLPLS,n.d. n.d. n.d. 2.27 n.d. n.d.,0/18
ALTAHHQVAIEAKNSIA,NAVMRYQ,QQYAQLPLM,0.52 0.29 0.53 0.25 0.37 0.24,2/18 (2.74)
NLVGRVEDNQTERNAIA,DMHCRAG,QQYSRLPLS,1.14 0.93 0.86 0.67 1.01 0.86,6/18 (3.32)
TIFQGRSYLDGDERNIA,DARTRND,QQYNRLPLV,0.80 1.69 0.89 1.34 0.74 0.98,0/18
QLDQAYRVGDLWTQSIA,HGSMRVQ,QCYERLPLS,1.81 2.61 2.73 2.00 2.79 2.53,2/18 (3.07)
QINHQGLSAALNNRNVA,AKNLRVD,QQYNRLPLS,0.26 0.00 -0.10 -0.18 0.03 0.10,0/18
IISANNVMQGSQWDAVA,QGEIANN,QQYARLPLS,1.51 n.d. n.d. 2.74 1.84 1.41,0/18
HVAQTRQEDIQNKNSVA,EGSVVIS,QQYSKLPFS,0.13 0.07 0.61 0.33 0.18 0.62,0/18
KLTHPTDSWLNHVNSIA,DANISVE,QQYMQLPLT,0.66 0.57 0.39 0.64 0.39 0.81,2/18 (2.11)
KLAMYLEMWADTKHAVA,DANHKTS,QQYNRLPIS,2.21 1.90 2.25 n.d. 2.33 1.53,0/18
RLRELNFESGNARNNIA,DAHIHEV,QQYAWLPLC,1.20 1.17 0.99 1.00 1.98 1.76,0/18
QIDSQYQHGTDQKKAMA,DSSVRTQ,QQYSRLPLS,-0.28 -0.40 -0.07 -0.90 -0.10 -0.22,0/18
KIELDLTRYNAGYSAIA,HETQKAQ,QQYSRLPLV,1.05 0.62 0.58 0.53 0.74 0.64,1/18 (3.30)
MMGLCQNGYYQQNNEIA,DVNERAM,QQYGRLPLS,1.55 1.70 1.76 1.95 1.63 1.73,1/18 (3.18)
NMKVGLNFEDIQHQAIA,SVDEREK,QQYYRLPLT,0.69 0.57 0.62 0.78 0.53 0.96,0/18
KLMMSLQGNPKDHYAIA,EGISATT,QQYARLPLM,1.13 0.81 1.15 1.56 1.03 1.70,0/18
QLEFYDVQGTAKWHAIA,EGSQLAQ,QQYFHLPLG,1.31 0.65 0.97 1.07 0.51 1.02,0/18
QMTGQLFEQGNRSGPIA,HESMKET,QQYAQLPLT,2.23 1.26 1.84 1.28 1.25 2.56,1/18 (2.75)
VMQMDNDRANDATYAIA,DVTMREK,QQYNRLPLM,2.53 2.36 0.84 1.56 n.d. 1.94,0/18
KFHMGWEMGSRKNDNIA,EANLRFS,QQYNRLPLF,0.24 -0.18 0.10 -0.11 0.29 0.48,0/18
HVSGLYTDESVNWYNIA,ETSHVEM,QQYERLPLI,0.55 0.83 0.52 0.70 0.74 0.82,1/18 (3.52)
TLHANIQYGGIMWSSIA,DNVQRAN,QQYTRLPLS,0.74 0.32 0.34 0.42 0.48 0.42,1/18 (2.69)

For reference, 4 entries of the list once more:

CDR-L1,CDR-L2,CDR-L3,log10 Kd (nM) by replicate,signal with controls
AISQMLEPAAQNSSSIA,EADRVTE,QQYSKLPLT,1.04 0.88 1.01 0.79 0.76 1.03,2/18 (2.50)
KLAMYLEMWADTKHAVA,DANHKTS,QQYNRLPIS,2.21 1.90 2.25 n.d. 2.33 1.53,0/18
HFAKQLGSLYNSKQNVA,NASTVMV,QHYNRLPLS,0.94 0.72 1.11 0.95 0.78 1.17,1/18 (3.33)
VMQMDNDRANDATYAIA,DVTMREK,QQYNRLPLM,2.53 2.36 0.84 1.56 n.d. 1.94,0/18

The authors averaged sequences with at least three values out of six and counted those with two or fewer as poor binders.
Values of this round are not directly comparable with the first-round values of the same sequences.
Three control strains display no target. For all light chain designs, 4% of the pairings with them gave a signal, with a median of 2.64 and one signal in twenty below 1.59, so weak values seen in few replicates may be background. Also given: how often the same scFv was detected with the empty control strains, with their mean in brackets.
The parent sequence was in this pool as ten entries: three were never detected, three once, and four in most replicates, with averages from 0.34 to 2.37.

Source: Li et al. 2023 (doi:10.1038/s41467-023-39022-2), MIT Lincoln Laboratory and A-Alpha Bio; data file from the FLAb repository.